# Data from US8283336B2, “Unit dosage for brain health” (N. V. Nutricia, priority 2007, dated 2012).
# System: muscarinic acetylcholine receptor
# Test: oxotremorine-induced membrane potential change in PC12 cells after incubation with nutrients (receptor functionality)
# Assay type: cell-based
# Settings: 1 day of incubation, then 50 μM oxotremorine, percentage change compared to control conditions
# Procedure: After 1 day of incubation the medium+additions were replaced by control medium and the cells were stimulated with 50 μM oxotremorine, an agonist at the muscarinic acetylcholine receptor, involved in learning and memory. Oxotremorine induces a depolarization of the membrane which can be measured as a change in membrane potential. At a fixed dose of the agonist, increases in membrane potential are thought to reflect improvements in receptor functioning.
structure (smiles),measurement,value
Cc1c(C)c2c(c(C)c1O)CC[C@@](C)(CCC[C@H](C)CCC[C@H](C)CCCC(C)C)O2 [alpha-tocopherol],membrane potential change,did not affect membrane potential change
